GIV Gai3 FP = inhibitors of GIV peptide binding to Galpha-i3, primary screen, biochemical, fluorescence polarization, FITC-GIV GBA peptide, rat Galphai3 | 90 min; stronger effect = lower value; scaled: aluminum fluoride 0%, vehicle 100% | AID 1224905, 2016 | 210,000 compounds, 0.42% hits | percent of control (FP), % (concentration not given with the values) | Guanine nucleotide-binding protein G(i) subunit alpha-3 (Rattus norvegicus), P08753;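 active = replicate mean at 85% of control or lower, very high polarization wells dropped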;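 note: wells of about 15 µL received 100 nL stock; the first replicate is given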
HCMV UL50-53 inh = cytomegalovirus nuclear egress complex inhibition | 190,000 tested, 0.15% active | AID 1918969 | HTRF UL50-UL53 interaction, normalized percent inhibition | inhibition, % (concentration not given with the values); in the data active means inhibition above about 27%, passing the limit was not always enough
Hits are given with their value; 0 = inactive; - = no result. The entries come from a sample that favours hits as a whole.

Amino acid sequences for entries named in this document (tags omitted).
Guanine nucleotide-binding protein G(i) subunit alpha-3 (Rattus norvegicus), P08753, UniProt P08753, whole entry, looked up: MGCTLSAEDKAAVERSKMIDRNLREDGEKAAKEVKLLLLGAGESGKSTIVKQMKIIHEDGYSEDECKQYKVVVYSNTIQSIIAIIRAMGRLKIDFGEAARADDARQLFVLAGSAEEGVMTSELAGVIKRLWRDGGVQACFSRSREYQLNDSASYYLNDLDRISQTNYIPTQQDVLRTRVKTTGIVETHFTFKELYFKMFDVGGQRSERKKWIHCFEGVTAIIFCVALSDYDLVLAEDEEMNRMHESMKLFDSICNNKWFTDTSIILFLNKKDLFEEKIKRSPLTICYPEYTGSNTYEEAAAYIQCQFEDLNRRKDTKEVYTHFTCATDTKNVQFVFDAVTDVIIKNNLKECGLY

SMILES	GIV Gai3 FP	HCMV UL50-53 inh
CCCCOC(=O)c1ccc(NC(=O)c2cc(=O)c3ccccc3o2)cc1	0	0
CCCCOC(=O)c1cccc(NC(=O)c2cc3ccccc3o2)c1	0	138.2
COc1ccc2c(c1)c1ncn(CCc3ccc(Cl)cc3)c(=O)c1n2C	0	0
CN(C)c1ccc2c3c(cccc13)C(=O)N(c1nc3ccccc3n1C)C2=O	0	0
CC(=O)NN1C(=O)c2cccc3c(N(C)C)ccc(c23)C1=O	65.6	-
COc1ccc(/C=C2\OC(=S)N(C)C2=O)cc1	0	-
COc1cc(/C=C2/OC(=S)N(C)C2=O)ccc1O	-72.6	0
COc1cc(C(CC(=O)O)N2Cc3ccccc3C2=O)cc(OC)c1OC (centres undefined)	0	0
COc1ccc(S(=O)(=O)N(C(=O)Oc2ccccc2)c2ccc3oc(=O)sc3c2)cc1OC	0	-
CN(C)/C=c1\s/c(=C/C(=O)c2cccs2)[nH]c1=O	72.5	0
O=C(/C=c1/[nH]c(=O)/c(=C/c2ccccc2C(F)(F)F)s1)c1ccco1	-	0
COC(=O)CSc1nc(-c2ccccc2)nc2c1Cc1cccc(OC)c1O2	0	0
COc1cccc2c1Oc1nc(-c3ccccc3)nc(SCC(=O)N(C)c3ccccc3)c1C2	-21.2	-
Cc1cc(=O)[nH]c(SCc2ccc(C(=O)Nc3nccs3)cc2)n1	0	0
CCCN1CCc2c(sc(NC(=S)NC(=O)c3ccccc3)c2C#N)C1	-59.0	-
CC(=O)N1CCc2c(sc(NC(=O)c3ccc(C#N)cc3)c2C#N)C1	-	0
Cc1c(C#N)c2nc3ccccc3n2c(=O)/c1=C\Nn1cnnc1	0	-
Cc1c(C#N)c2nc3ccccc3n2c(=O)/c1=C\Nc1cccc(NC(=O)c2ccccc2)c1	-67.4	-
CCn1c(O)c(C=Nc2cccc(O)c2)sc1=S	65.7	0
CCn1c(O)c(/C=N/c2nc3ccccc3[nH]2)sc1=S	-	0
CN(CC(=O)NC1CC1)S(=O)(=O)c1cc2c(cc1Cl)NC(=O)CO2	0	-
CN(C)/C=C/C=C1\CCc2ccccc2C1=O	-72.7	-
CN(C)/C=C/C=C1\CC/C(=C\C=C\N(C)C)C1=O	0	0
O=C(CN1C(=O)C2CCCCN2c2ccc(C(=O)N3CCCC3)cc21)NCCc1cnc[nH]1 (centres undefined)	0	0
CN1CCN(Cc2c(O)ccc3cc(-c4nc5ccccc5[nH]4)c(=O)oc23)CC1	-75.4	0
SMILES	GIV Gai3 FP	HCMV UL50-53 inh
CN1CCN(Cc2c(O)ccc3cc(-c4ccccc4)c(=O)oc23)CC1	0	-
CCOc1cccc2cc(-c3nc4ccccc4[nH]3)c(=O)oc12	-	0
CC1CCCN(C/C(O)=C(\C#N)c2nc3ccccc3[nH]2)C1 (centres undefined)	0	0
CC1CCCN(Cc2c(O)ccc3cc(-c4nc5ccccc5[nH]4)c(=O)oc23)C1 (centres undefined)	-33.1	0
CCC1CCCCN1Cc1c(O)ccc2cc(-c3nc4ccccc4[nH]3)c(=O)oc12 (centres undefined)	-41.9	-
CC(C)c1cnc2c(c1SCC(=O)Nc1cccc([N+](=O)[O-])c1)c(=O)n(C)c(=O)n2C	0	-
CC(=O)Nc1cccc(OCCCN2CCS(=O)(=O)CC2)c1	0	0
N#C/C(=C\c1[nH]c2ccccc2c1O)C(=N)N1CCOCC1	-18.2	-
COc1ccc(N=C(N)/C(C#N)=C/c2[nH]c3ccccc3c2O)cc1	0	-
CCN(CC)CCNC(=O)c1c2c(nc3ccccc13)C(=O)N(C1CCCCC1)C2	0	-
C=CCc1cc(C=C2C(=O)NC(=O)NC2=O)cc(OC)c1OC	0	59.8
COc1cc(C=C2C(=O)NC(=O)NC2=O)cc(Cl)c1OCc1ccccc1Cl	0	0
CCC(=O)Oc1ccc(C=C2C(=O)NC(=O)NC2=O)cc1OC	0	55.9
COc1cc(C=C2C(=O)NC(=O)NC2=O)ccc1OC(=O)c1ccc(Cl)cc1	0	0
CCCCNS(=O)(=O)c1ccc2c(c1)nc(CCC)n2CCCC	-	0
C=Cc1ccc(CN2C(=O)N(c3ccc(C)c(C)c3)S(=O)(=O)c3ccccc32)cc1	0	-
CCN(CC)c1ccc2cc(-c3nc4ccccc4c(=O)[nH]3)c(=N)oc2c1	8.2	0
CCN(CC)c1ccc2cc(C(=O)Nc3ccc(C)cc3)c(=N)oc2c1	0	0
CCN(CC)c1ccc2cc(C(=O)Nc3ccccc3)c(=N)oc2c1	72.9	-
CCN(CC)c1ccc2cc(-c3c(O)c4ccccc4[nH]c3=O)c(=O)oc2c1	-	0
COc1ccc(-n2cc(-c3ccccc3)nc2SCC(=O)Nc2ccccc2)cc1Cl	0	-
CCCCOC(=O)OC1CCS(=O)(=O)C1 (centres undefined)	0	0
Cc1ccc(NC(=O)CSc2nc3ccccc3nc2N2CCOCC2)cc1	0	0
CCOc1cc(/C=C2/SC(=S)N(C)C2=O)cc(Br)c1O	-46.7	0
CCOc1cc(/C=C2/SC(=Nc3ccccc3)NC2=O)cc(Br)c1O	0	0
SMILES	GIV Gai3 FP	HCMV UL50-53 inh
O=C(C1CCN(c2ncnc3c2oc2ccccc23)CC1)N1CCN(c2cccc(Cl)c2)CC1	0	-
O=C(O)COCC(=O)Nc1ccc2c(c1)oc1ccccc12	0	-
O=C(O)CCC(=O)Nc1ccc2c(c1)oc1ccccc12	0	52.5
COC(=O)c1c(NC(=O)CCCOc2cccc(C)c2)sc2c1CCC(C)C2 (centres undefined)	0	0
CCc1ccc2nc(Nc3nc4ccccc4c(=O)[nH]3)nc(C)c2c1	0	-
CCc1ccc2c(C)nc(NC3=NC(C)(C)C=C(C)N3)nc2c1	-	48.6
COc1ccccc1NC(=O)C1=C(C)Nc2ncnn2C1c1ccc[nH]1 (centres undefined)	0	-
Cc1noc(C)c1CSc1nc2c(sc3ncccc32)c(=O)n1CC(C)C	0	38.0
CCc1cc2c(=O)n(Cc3ccccc3)c(SCc3c(C)noc3C)nc2s1	-	0
Cc1csc(-c2cc(S(=O)(=O)Nc3ccc(C)c(F)c3)c(C)s2)n1	65.7	-
Cc1csc(-c2cc(S(=O)(=O)Nc3ccc(S(N)(=O)=O)cc3)c(C)s2)n1	0	-
CCN(CC)c1ccc2cc(-c3nc4sc5c(c4c(=O)[nH]3)CCC(C(C)(C)C)C5)c(=O)oc2c1 (centres undefined)	-66.0	0
CC(C)(C)C1CCc2c(sc3nc(-c4cc5ccccc5oc4=O)[nH]c(=O)c23)C1 (centres undefined)	0	0
Cc1c(-c2nc(-c3ccccc3)no2)nnn1-c1ccc(Cl)cc1	0	0
O=C1/C(=C/c2cc3ccccc3o2)CC/C1=C\c1cc2ccccc2o1	-5.9	-
O=C1/C(=C\c2ccc(Br)o2)CC/C1=C/c1ccc(Br)o1	0	-
CCOc1ccc(-c2c(C#N)c(N)nc(SCC#N)c2C#N)cc1	-	0
COc1cc(-c2c(C#N)c(SCC#N)nc(N)c2C(=O)OC(C)C)cc(OC)c1OC	-	63.3
CNC(=S)N(Cc1ccco1)Cc1cc2cc(C)ccc2n2nnnc12	0	0
COc1ccc(OC)c(S(=O)(=O)Nc2cnc(N3CCCC3)c(C(=O)O)c2)c1	0	0
Cc1cc(C)c(S(=O)(=O)Nc2cnc(N3CCCC3)c(C(=O)O)c2)cc1C	72.1	0
O=C1O[C@@H]2C[C@H]3C[C@@H]2[C@@H]1[C@H]3C(=O)Nc1ccc(C(=O)N2CCCCC2)cc1	0	0
O=C(OCC(=O)c1c[nH]c2ccccc12)C1=COCCO1	-	0
CCOC(=O)c1ccc(Nc2nnc(-c3cc4ccc(N(CC)CC)cc4oc3=O)s2)cc1	0	0
CCN(CC)c1ccc2cc(-c3nnc(Nc4ccc(C)cc4)s3)c(=O)oc2c1	-69.9	-

Screening results: PubChem BioAssay, ICCB-Longwood Screening Facility, Harvard Medical School
